The values below come from PubChem BioAssay (EPA / NIEHS).

Protein sequences, listed by entry. Tags and fused reporters are not part of them. Lines headed by an entry give the natural chain unless they say otherwise; changes in a name come on top.
UniProt Q16665, whole entry, looked up: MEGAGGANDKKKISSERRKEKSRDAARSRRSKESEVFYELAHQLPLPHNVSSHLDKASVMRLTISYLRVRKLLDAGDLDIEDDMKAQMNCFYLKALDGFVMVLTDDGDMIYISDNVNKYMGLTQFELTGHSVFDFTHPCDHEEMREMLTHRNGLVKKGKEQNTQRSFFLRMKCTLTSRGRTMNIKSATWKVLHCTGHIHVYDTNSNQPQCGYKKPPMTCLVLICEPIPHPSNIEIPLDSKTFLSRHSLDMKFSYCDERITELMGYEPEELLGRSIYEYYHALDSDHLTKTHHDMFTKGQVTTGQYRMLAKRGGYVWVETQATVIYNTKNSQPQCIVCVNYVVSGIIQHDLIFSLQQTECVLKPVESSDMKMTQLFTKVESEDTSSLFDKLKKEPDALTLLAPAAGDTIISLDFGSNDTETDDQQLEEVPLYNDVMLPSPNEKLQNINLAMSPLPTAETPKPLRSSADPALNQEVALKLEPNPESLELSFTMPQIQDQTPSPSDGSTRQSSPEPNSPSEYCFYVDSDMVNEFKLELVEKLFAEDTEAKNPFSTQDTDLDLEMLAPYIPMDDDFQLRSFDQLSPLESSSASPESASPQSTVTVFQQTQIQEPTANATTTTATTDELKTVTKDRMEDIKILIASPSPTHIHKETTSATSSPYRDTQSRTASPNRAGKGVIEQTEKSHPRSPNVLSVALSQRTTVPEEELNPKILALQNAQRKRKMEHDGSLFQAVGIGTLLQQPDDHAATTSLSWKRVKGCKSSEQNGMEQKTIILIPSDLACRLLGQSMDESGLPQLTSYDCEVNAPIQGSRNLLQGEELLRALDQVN
UniProt Q00613: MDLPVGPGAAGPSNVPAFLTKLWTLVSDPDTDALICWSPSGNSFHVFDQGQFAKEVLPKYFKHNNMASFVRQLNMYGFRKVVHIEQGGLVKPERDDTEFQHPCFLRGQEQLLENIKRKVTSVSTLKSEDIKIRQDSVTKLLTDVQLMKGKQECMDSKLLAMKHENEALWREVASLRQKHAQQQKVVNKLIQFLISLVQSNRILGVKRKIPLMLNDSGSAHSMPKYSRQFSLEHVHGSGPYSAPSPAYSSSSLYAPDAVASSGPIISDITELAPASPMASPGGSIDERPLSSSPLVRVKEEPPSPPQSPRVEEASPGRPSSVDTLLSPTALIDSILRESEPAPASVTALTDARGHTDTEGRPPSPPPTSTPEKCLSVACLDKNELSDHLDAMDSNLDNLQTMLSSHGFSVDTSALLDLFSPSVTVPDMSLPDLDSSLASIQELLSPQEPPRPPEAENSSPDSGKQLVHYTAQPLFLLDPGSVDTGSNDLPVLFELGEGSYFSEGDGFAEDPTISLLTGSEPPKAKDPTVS
UniProt P26367: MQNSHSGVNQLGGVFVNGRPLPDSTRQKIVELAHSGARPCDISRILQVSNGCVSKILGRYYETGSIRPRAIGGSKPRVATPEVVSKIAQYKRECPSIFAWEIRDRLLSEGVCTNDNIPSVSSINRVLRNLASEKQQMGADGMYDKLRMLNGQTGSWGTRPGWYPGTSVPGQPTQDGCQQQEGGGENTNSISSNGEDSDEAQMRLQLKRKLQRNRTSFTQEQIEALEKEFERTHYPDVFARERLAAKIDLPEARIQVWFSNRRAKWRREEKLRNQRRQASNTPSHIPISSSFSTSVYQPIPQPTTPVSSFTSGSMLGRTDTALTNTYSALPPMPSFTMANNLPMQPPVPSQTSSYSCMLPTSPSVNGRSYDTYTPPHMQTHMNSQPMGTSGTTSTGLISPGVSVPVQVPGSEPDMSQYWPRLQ
UniProt P08047, whole entry, looked up: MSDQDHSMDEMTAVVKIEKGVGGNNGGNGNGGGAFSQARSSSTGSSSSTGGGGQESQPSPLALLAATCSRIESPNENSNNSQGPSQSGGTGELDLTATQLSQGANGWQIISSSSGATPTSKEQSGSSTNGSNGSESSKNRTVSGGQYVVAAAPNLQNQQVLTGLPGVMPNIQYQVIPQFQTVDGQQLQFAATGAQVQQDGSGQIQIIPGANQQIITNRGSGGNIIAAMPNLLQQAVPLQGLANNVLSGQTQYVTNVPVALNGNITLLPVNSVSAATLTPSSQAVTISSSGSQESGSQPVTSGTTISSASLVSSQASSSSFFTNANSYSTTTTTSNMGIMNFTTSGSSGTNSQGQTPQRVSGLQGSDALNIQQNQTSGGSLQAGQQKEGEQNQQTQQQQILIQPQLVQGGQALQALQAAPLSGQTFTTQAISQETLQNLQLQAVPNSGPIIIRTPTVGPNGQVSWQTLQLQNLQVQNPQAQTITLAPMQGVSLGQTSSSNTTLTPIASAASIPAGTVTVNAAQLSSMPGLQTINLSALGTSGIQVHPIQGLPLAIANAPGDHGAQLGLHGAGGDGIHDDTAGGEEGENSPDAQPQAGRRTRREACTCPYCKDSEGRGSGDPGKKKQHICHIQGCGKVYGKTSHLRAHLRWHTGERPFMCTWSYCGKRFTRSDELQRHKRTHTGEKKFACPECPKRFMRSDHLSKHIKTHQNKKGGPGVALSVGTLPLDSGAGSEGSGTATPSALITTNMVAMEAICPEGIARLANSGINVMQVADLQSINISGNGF
UniProt P40763, whole entry, looked up: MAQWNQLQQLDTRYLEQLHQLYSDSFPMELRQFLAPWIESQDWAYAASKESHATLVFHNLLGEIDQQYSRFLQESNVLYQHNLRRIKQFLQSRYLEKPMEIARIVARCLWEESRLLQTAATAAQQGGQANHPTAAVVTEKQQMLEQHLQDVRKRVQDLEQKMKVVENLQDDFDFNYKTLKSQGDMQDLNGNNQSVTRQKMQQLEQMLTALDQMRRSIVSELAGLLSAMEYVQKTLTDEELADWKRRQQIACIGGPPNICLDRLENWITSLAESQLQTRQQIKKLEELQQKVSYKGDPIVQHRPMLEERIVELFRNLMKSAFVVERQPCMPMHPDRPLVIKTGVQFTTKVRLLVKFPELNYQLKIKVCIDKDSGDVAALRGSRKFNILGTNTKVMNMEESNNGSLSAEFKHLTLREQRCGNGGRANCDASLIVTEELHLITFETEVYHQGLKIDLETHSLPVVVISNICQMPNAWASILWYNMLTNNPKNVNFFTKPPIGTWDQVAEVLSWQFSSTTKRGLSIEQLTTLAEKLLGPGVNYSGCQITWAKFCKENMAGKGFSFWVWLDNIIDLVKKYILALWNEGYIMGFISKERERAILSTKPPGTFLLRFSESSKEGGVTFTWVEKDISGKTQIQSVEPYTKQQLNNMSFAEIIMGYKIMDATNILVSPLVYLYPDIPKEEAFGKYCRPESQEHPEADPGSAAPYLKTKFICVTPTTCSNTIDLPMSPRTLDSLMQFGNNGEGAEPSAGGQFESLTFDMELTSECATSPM
UniProt P11474: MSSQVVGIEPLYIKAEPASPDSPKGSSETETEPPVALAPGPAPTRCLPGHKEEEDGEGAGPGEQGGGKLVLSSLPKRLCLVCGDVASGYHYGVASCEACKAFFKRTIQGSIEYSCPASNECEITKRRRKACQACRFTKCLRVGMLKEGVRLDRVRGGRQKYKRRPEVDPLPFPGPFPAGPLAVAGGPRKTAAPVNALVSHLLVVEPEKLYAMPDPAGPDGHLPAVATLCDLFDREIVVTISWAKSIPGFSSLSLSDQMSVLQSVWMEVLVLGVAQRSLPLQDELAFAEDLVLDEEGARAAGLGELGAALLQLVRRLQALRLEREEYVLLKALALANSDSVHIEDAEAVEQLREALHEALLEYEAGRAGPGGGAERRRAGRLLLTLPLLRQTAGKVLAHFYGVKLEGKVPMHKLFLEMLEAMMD
UniProt Q14994: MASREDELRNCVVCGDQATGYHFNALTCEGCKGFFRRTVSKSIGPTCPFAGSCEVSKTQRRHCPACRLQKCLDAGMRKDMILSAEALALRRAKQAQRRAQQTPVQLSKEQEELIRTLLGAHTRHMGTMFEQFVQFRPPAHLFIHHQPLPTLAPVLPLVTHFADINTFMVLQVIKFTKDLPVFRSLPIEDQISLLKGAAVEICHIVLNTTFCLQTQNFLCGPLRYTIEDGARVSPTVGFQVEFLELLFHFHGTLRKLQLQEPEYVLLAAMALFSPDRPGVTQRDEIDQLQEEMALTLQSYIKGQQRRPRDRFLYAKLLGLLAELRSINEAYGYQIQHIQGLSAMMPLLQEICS
UniProt P03372, whole entry, looked up: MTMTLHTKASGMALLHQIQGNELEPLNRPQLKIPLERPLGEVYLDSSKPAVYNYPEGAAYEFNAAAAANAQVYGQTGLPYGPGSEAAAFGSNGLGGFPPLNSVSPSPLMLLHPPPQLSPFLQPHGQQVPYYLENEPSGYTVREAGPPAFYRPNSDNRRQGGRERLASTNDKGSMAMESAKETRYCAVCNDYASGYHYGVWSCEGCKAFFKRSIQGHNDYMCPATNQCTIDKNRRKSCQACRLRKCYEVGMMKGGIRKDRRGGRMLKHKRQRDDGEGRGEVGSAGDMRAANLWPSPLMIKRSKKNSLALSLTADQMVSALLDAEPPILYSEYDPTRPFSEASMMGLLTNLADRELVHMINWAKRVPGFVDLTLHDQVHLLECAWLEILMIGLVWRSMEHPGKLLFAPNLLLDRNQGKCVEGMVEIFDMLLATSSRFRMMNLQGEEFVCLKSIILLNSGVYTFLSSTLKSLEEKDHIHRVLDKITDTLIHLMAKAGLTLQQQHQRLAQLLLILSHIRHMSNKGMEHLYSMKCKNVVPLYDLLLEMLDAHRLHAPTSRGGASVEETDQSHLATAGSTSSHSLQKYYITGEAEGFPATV

Molecules are shown by their SMILES. Values joined by “and” are separate entries in the source; they are usually repeats but may differ in a detail not shown here. Identical values can stand only once. The entries are a selection whose mix differs from that of the whole data set. Results filed as inconclusive are left out. A structure can be active in one record and inactive in another. Active and inactive are the calls of the source. How the source made its calls, unless noted: active means hit-call score of the fitted dose curve at least 0.9, where 1 is the maximum; inactive means score below 0.9.

The nature of assay [1]: ATG_M_32_CIS: Attagene CIS-FACTORIAL HepG2 Assay for M32 Transcription Factor (Internal Marker) (AID 2282949).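 Further: background control marker of the multiplexed CIS panel rather than a real target.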 Particulars: HepG2 Attagene cis-factorial M32 reporter, mRNA; actives raise or lower the signal. Summed up:
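Fluorescent capillary electrophoresis peaks of HpaI-digested, FAM-labelled RT-PCR reporter products give the signal. Source: transiently transfected human liver HepG2 cells, 24 h after chemical dosing; bidirectional fitting against DMSO.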

Assay [2] can be described thus: ATG_M_06_CIS: Attagene CIS-FACTORIAL HepG2 Assay for M06 Transcription Factor (Internal Marker) (AID 2282950). Particulars: HepG2 Attagene CIS-FACTORIAL M06 internal marker reporter; actives raise or lower the signal. Summed up: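 HepG2 cells transiently transfected with cis-regulated multiple reporter transcription units were exposed to chemical for 24 h; reporter mRNA was quantified by RT-PCR, 6-FAM primer labelling, HpaI digestion and capillary electrophoresis, fitted bidirectionally against DMSO.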

The target of assay [3] is Hypoxia-inducible factor 1-alpha (Homo sapiens) (UniProt Q16665). Put plainly: ATG_HIF1a_CIS: Attagene CIS-FACTORIAL HepG2 Assay for human Hypoxia Inducible Factor 1 (HIF1A) (AID 2282951). Particulars: HepG2 Attagene cis-factorial HIF1a reporter transcription; actives raise or lower the signal. Summed up: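 Transient MRTU transfection of human HepG2 liver cells, 24 h compound treatment, then total RNA isolation, oligo(dT) reverse transcription, PCR amplification, fluorescent labelling and capillary electrophoresis of reporter fragments. Gain or loss relative to DMSO.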

Assay [4] concerns the target Heat shock factor protein 1 (Homo sapiens) (UniProt Q00613). The assay is described as follows: ATG_HSE_CIS: Attagene CIS-FACTORIAL HepG2 Assay for human Heat Shock Transcription Factor 1 (HSE) (AID 2282953). The following applies: HepG2 HSE cis-reporter, Attagene RNA transcription; actives raise or lower the signal. A digest of the protocol:
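HepG2 cells transiently transfected with multiple reporter transcription units under cis-regulatory promoter control, measuring endogenous transcription factor activity. After 24 h chemical exposure, reporter mRNA quantified by RT-PCR, fluorescent labelling, HpaI digestion and capillary electrophoresis; bidirectional fit versus DMSO.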

Assay [5] in a line: ATG_MRE_CIS: Attagene CIS-FACTORIAL HepG2 Assay for human Metal Responsive Element (MRE) (AID 2282954). Particulars: HepG2 MRE cis-reporter transcription, Attagene multiplex; actives raise or lower the signal. A digest of the protocol:
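Step one: transfect HepG2 with cis-regulated reporter units. Step two: dose 24 h. Step three: isolate RNA, RT-PCR, 6-FAM label, HpaI digest, capillary electrophoresis. Fit bidirectionally to DMSO.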

The nature of assay [6]: ATG_PBREM_CIS: Attagene CIS-FACTORIAL HepG2 Assay for human Phenobarbital-responsive Enhancer Module (PBREM) (AID 2282955). Particulars: HepG2 PBREM cis-reporter, Attagene multiplexed transcription; actives raise or lower the signal. A digest of the protocol: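 Endogenous transcription factors in human liver HepG2 cells drive a PBREM cis-element reporter, whose transcript level after 24 h treatment is quantified by RT-PCR with capillary electrophoresis; activity fitted in both directions against DMSO.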

For assay [7], the target named is Paired box protein Pax-6 (Homo sapiens) (UniProt P26367). Put plainly: ATG_Pax6_CIS: Attagene CIS-FACTORIAL HepG2 Assay for human Paired Box 6 (PAX6) (AID 2282956). Particulars: HepG2 CIS-FACTORIAL PAX6 reporter transcription, RNA readout; actives raise or lower the signal. A digest of the protocol:
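Transient MRTU transfection of HepG2 → compound exposure 24 h → TriZol RNA, oligo(dT) RT → PCR, 6-FAM primer extension, HpaI cut → capillary electrophoresis; activity fitted both directions against DMSO.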

A short description of assay [8]: ATG_PXRE_CIS: Attagene CIS-FACTORIAL HepG2 Assay for human Pregnane X Receptor Element (PXRE) (AID 2282957). Particulars: HepG2 Attagene CIS-FACTORIAL PXRE reporter, mRNA; actives raise or lower the signal. Summed up:
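HepG2 cells transiently transfected with cis-regulated multiple reporter transcription units; endogenous factor activity measured as reporter mRNA 24 h after dosing. RT-PCR, fluorescent primer extension, HpaI digestion, capillary electrophoresis; bidirectional fit versus DMSO baseline.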

Assay [9] has as its target Transcription factor Sp1 (Homo sapiens) (UniProt P08047). Put plainly: ATG_Sp1_CIS: Attagene CIS-FACTORIAL HepG2 Assay for human Specificity Protein 1 (Sp1) (AID 2282961). The following applies: HepG2 Sp1 cis-reporter transcription, actives raise or lower the signal. Summed up: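 Transient MRTU-transfected HepG2, 24 h compound exposure. Total RNA → oligo(dT) RT → PCR of reporter → 6-FAM primer extension → HpaI digest → CE. Endpoint fitted both directions vs DMSO.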

The target in assay [10] is Signal transducer and activator of transcription 3 (Homo sapiens) (UniProt P40763). The assay is described as follows: ATG_STAT3_CIS: Attagene CIS-FACTORIAL HepG2 Assay for human Signal Transducer and Activator of Transcription 3 (STAT3) (AID 2282963). Particulars: HepG2, Attagene cis-factorial STAT3 reporter transcription; actives raise or lower the signal. Summed up:
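Transcript-level reporter assay. HepG2 transient MRTU transfection, 24 h exposure, fluorescence detection after RT-PCR and CE; DMSO baseline.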

Assay [11] can be described thus: ATG_TA_CIS: Attagene CIS-FACTORIAL HepG2 Assay for human TA Basal Promoter (AID 2282964). Particulars: HepG2 Attagene CIS-factorial TA basal promoter reporter; actives raise or lower the signal. A digest of the protocol:
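HepG2 cells transiently transfected with multiplexed cis-promoter reporter units, dosed 24 h. Reporter mRNA measured by RT-PCR, 6-FAM labelling, HpaI digestion and capillary electrophoresis; bidirectional fit versus DMSO baseline, serving as background control.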

Assay [12] is described as follows: ATG_TCF_b_cat_CIS: Attagene CIS-FACTORIAL HepG2 Assay for human T-Cell-Factor with beta-catenin (TCF/b-cat) (AID 2282965). Particulars: HepG2 TCF/beta-catenin cis-reporter transcription, actives raise or lower the signal. A digest of the protocol:
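Using capillary electrophoresis as the read-out, labelled reporter cDNA fragments from transiently transfected HepG2 were sized and quantified. Exposure lasted 24 hours; activity in either direction was referenced to DMSO.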

The nature of assay [13]: ATG_TAL_CIS: Attagene CIS-FACTORIAL HepG2 Assay for human TAL Basal Promoter (AID 2282966).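 Further: background control endpoint measuring basal TAL promoter reporter mRNA not a specific factor.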 Particulars: HepG2 Attagene cis-factorial TAL promoter reporter; actives raise or lower the signal. A digest of the protocol:
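HepG2 cells were transiently transfected with promoter-driven multiplexed reporter units and dosed for 24 h. Reporter mRNA was measured by RT-PCR with capillary electrophoresis fluorescence; bidirectional fits used DMSO as baseline, serving as a background control.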

Assay [14] can be described thus: ATG_TGFb_CIS: Attagene CIS-FACTORIAL HepG2 Assay for human Transforming Growth Factor (TGF) (AID 2282967). Particulars: HepG2 Attagene CIS TGFb reporter, mRNA transcription; actives raise or lower the signal. Summed up: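 HepG2 cells transiently transfected with cis-promoter-driven multiplexed reporter units; 24 h compound exposure. Reporter mRNA measured by RT-PCR, 6-FAM labeling, HpaI digestion and capillary electrophoresis; bidirectional fit versus DMSO baseline.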

A short description of assay [15]: ATG_VDRE_CIS: Attagene CIS-FACTORIAL HepG2 Assay for human Vitamin D Receptor Element (VDRE) (AID 2282968). The following applies: HepG2 VDRE cis-reporter transcription, actives raise or lower the signal. Summed up:
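RT-PCR/CE readout of reporter mRNA; HepG2, transient transfection, 24 h dosing; DMSO baseline; bidirectional analysis.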

In assay [16] the target is Steroid hormone receptor ERR1 (Homo sapiens) (UniProt P11474). Put plainly: ATG_ERRa_TRANS: Attagene TRANS-FACTORIAL HepG2 Assay for human Estrogen-Related Receptor alpha (ERRa) (AID 2282971; active means hit-call score of the fitted dose curve at least 0.9, where 1 is the maximum). Particulars: HepG2 Attagene TRANS reporter, ERRa transactivation. A digest of the protocol:
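HepG2 cells transiently transfected with multiplexed GAL4-UAS reporter units reading chimeric ERRa-Gal4 activity; 24 h compound exposure. Reporter mRNA measured by RT-PCR, 6-FAM labelling, HpaI digest and capillary electrophoresis; gain of signal fitted versus DMSO baseline.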

A short description of assay [17]: ATG_PPRE_CIS: Attagene CIS-FACTORIAL HepG2 Assay for human Peroxisome Proliferator-activated Response Element (PPRE) (AID 2282958). Particulars: HepG2 PPRE cis-element reporter, Attagene transcription factor profiling; actives raise or lower the signal. Summed up: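 HepG2, transient MRTU transfection (cis promoter elements, endogenous TFs). 24 h dosing. RNA → oligo(dT) RT → PCR → 6-FAM primer extension → HpaI digest → CE. Bidirectional fit vs DMSO.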

Assay [18] can be described thus: ATG_RORE_CIS: Attagene CIS-FACTORIAL HepG2 Assay for human RAR-related Orphan Receptor Element (RORE) (AID 2282959). Particulars: HepG2 Attagene cis-factorial RORE reporter, mRNA; actives raise or lower the signal. Summed up: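 Transient MRTU transfection of human HepG2 liver cells (FuGene 6); 24 h compound exposure; TriZol RNA, oligo(dT) RT, PCR, FAM labeling, HpaI cut, CE fragment analysis. DMSO = negative control/baseline.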

Assay [19] has as its target Nuclear receptor subfamily 1 group I member 3 (Homo sapiens) (UniProt Q14994). Put plainly: ATG_CAR_TRANS: Attagene TRANS-FACTORIAL HepG2 Assay for human Constitutive Androstane Receptor (CAR) (AID 2282969; active means hit-call score of the fitted dose curve at least 0.9, where 1 is the maximum;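 further: activators raise reporter mRNA above DMSO so AC50 marks induction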). The following applies: HepG2 Attagene TRANS-FACTORIAL CAR reporter. A digest of the protocol:
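HepG2 cells transiently transfected with multiplexed GAL4-UAS reporter units expressing chimeric NR-Gal4 proteins; compound exposure 24 h. Reporter mRNA measured by RT-PCR, 6-FAM labelling, HpaI digestion and capillary electrophoresis; gain-of-signal fitted against DMSO baseline.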

Assay [20] has as its target Estrogen receptor (Homo sapiens) (UniProt P03372). Put plainly: ATG_ERa_TRANS: Attagene TRANS-FACTORIAL HepG2 Assay for human Estrogen Receptor alpha (ERa) (AID 2282970; active means hit-call score of the fitted dose curve at least 0.9, where 1 is the maximum). Particulars: HepG2 Attagene TRANS ERa GAL4 reporter, mRNA. A digest of the protocol:
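HepG2 cells transiently transfected with multiplexed GAL4-UAS reporter units; ERa activity read via exogenous chimeric NR-Gal4 protein. After 24 hour compound exposure, reporter mRNA measured by RT-PCR with 6-FAM labelling and capillary electrophoresis; gain-of-signal fitted relative to DMSO.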

With `CC(C)OP(=S)(OC(C)C)SCCNS(=O)(=O)c1ccccc1`, the call in assay [1], in [2], in assay [3], in assay [4], in assay [5] and in assay [6] was inactive. Further, the call in assay [7], in [9], in assay [10], in assay [11], in assay [12] and in assay [13] was inactive. Further, the compound was classed as inactive in assay [14] and in assay [16]. Moreover, the AC50 in assay [6] is active: 514 nM and active: 365 nM; in assay [8] it was active: 105 nM and active: 103 nM and active: 72.5 nM; in [15], active: 297 nM and active: 701 nM and active: 900 nM.
Consider `ClP(Cl)c1ccccc1`, for which the outcome in assay [1], in assay [2], in assay [3], in [4], in assay [5] and in assay [7] was inactive. The compound was classed as inactive in assay [8], in [17], in [18], in [9], in assay [10] and in [11]. Besides, the call in assay [12], in assay [13], in [14] and in [15] was inactive.
In the case of `O=[As]c1ccccc1` (configuration not stated), the compound was classed as inactive in assay [1], in assay [2], in [3], in assay [6], in [17] and in assay [18]. The outcome in [11], in [13], in assay [14], in assay [19] and in assay [20] was inactive. Further, the AC50 in [4] was active: 0.236 µM; in assay [5], active: 0.32 µM; in assay [7], active: 0.325 µM; in assay [8] it was active: 282 nM; in assay [9], active: 0.329 µM; in assay [10], active: 0.6 µM. Besides, the results for the AC50 in assay [12] and in assay [15] were active: 0.173 µM and active: 279 nM, respectively.
`Cc1cc([N+](=O)[O-])cc([N+](=O)[O-])c1O`: the compound was classed as inactive in [1], in assay [2], in assay [4], in assay [5], in [6] and in [7]. For the same compound, the call in [8], in [18], in [9], in assay [10], in assay [11] and in assay [12] was inactive. Moreover, the call in assay [13], in [14] and in [15] was inactive.

As usually defined, the AC50 is the midpoint of the concentration-response curve, whichever way the signal moves.
